Data published in patent publication US10435447B2, “Bacteriocidal peptides and uses thereof” (priority 2015, dated 2019).
Where two headings read alike, the source gives them in different places.

Legend:
[1] = tested on: E. cloacae; details: E. cloacae OC 4080; with SMAP-29C* vs alone
[2] = tested on: E. coli; details: with SMAP-29C* vs alone
[3] = tested on: P. aeruginosa; details: P. aeruginosa PA01 oprD; with SMAP-29C* vs alone

SMILES: NC[C@H]1O[C@H](O[C@H]2[C@H](O)[C@@H](O[C@H]3O[C@H](CO)[C@@H](O)[C@H](N)[C@H]3O)[C@H](N)C[C@@H]2N)[C@H](O)[C@@H](O)[C@@H]1O [Kan, kanamycin]
- Kan MIC Fold change (↓ decrease) [1]: ↓>8x fold
- Kan MIC Fold change (↓ decrease) ([2]; E. coli ATCC25922): ↓>8x fold
- Kan MIC Fold change (↓ decrease) ([2]; E. coli IU-342): ↓2x fold
- Kan MIC Fold change (↓ decrease) [3]: ↓2x fold
